The record followed here is PubChem BioAssay AID2366 (The Scripps Research Institute Molecular Screening Center, 2010).

The nature of the test: PME-1 inhibitor potency by in-gel ABPP, dose response, selectivity assay for PME-1 inhibitor project, cell lysate, mouse brain cytosol, FP-rhodamine (AID 2366). The settings on record: gel-based ABPP.

This is a selection; strong and weak results do not stand in their true shares. Activity calls are given as the source filed them.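 The calls were made as follows: active = compounds picked for the later follow-up tests because of their potency and selectivity; inactive = compounds skipped in follow-up as weaker or less selective.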

Broadly, the IC50 is the concentration at which inhibition is half-maximal. For `N#C/C(=C\c1cccn1S(=O)(=O)c1ccccc1)S(=O)(=O)c1ccc(F)cc1`, the IC50 is inactive: > 50 µM.
